Data as given in patent US20230020092A1 (published 2023).

Columns and labels:
Murine DMD exon 23 [1] = test: Dystrophin exon 23 skipping in MDX mice (RT-PCR); conditions: for Exon 23 Skipping % Diaphragm / Exon 23 Skipping % Heart / Exon 23 Skipping % Quad: MDX, IV
dystrophin = test: Dystrophin protein expression in MDX mice (Western Blot)
Murine DMD exon 23 [2] = test: Dystrophin exon 23 skipping in wild type mice (RT-PCR); conditions: for exon 23 skipping in quadriceps, transverse abdominis, diaphragm and heart: IV

Substance	exon skipping activity in MDX mice, comparison between constructs (in words) (Murine DMD exon 23 [1]; MDX mice, single IV injection)	Exon 23 Skipping % Diaphragm (Murine DMD exon 23 [1]; 10 mpk, Sac. 1 w) [%]	Exon 23 Skipping % Heart (Murine DMD exon 23 [1]; 10 mpk, Sac. 1 w) [%]	Exon 23 Skipping % Quad (Murine DMD exon 23 [1]; 10 mpk, Sac. 1 w) [%]	dystrophin mRNA exon 23 correction, dose dependence (Murine DMD exon 23 [1]; MDX mice, 10 mpk or 30 mpk, one week post injection, quadriceps, transverse abdominis, diaphragm, heart)	duration of exon skipping and dystrophin mRNA correction (Murine DMD exon 23 [1]; MDX mice, single IV 30 mpk, 1, 2 or 4 weeks post injection)	Exon 23 Skipping % Diaphragm (Murine DMD exon 23 [1]; 30 mpk, Sac. 2 w) [%]	Exon 23 Skipping % Heart (Murine DMD exon 23 [1]; 30 mpk, Sac. 2 w) [%]	Exon 23 Skipping % Quad (Murine DMD exon 23 [1]; 30 mpk, Sac. 2 w) [%]	dystrophin level compared to that of PMO^DMD, diaphragm (dystrophin; IV 10 mpk vs 8 mpk PMO, 1 week) [fold]	dystrophin level compared to that of PMO^DMD, heart (dystrophin; IV 10 mpk vs 8 mpk PMO, 1 week) [fold]	dystrophin level compared to that of PMO^DMD, quadriceps (dystrophin; IV 10 mpk vs 8 mpk PMO, 1 week) [fold]	dystrophin level compared to that of PMO^DMD, transverse abdominis (dystrophin; IV 10 mpk vs 8 mpk PMO, 1 week) [fold]	dystrophin expression by western blotting (dystrophin; IV 10 mpk, 1 week post injection)	dystrophin mRNA lacking exon 23 in local muscle (Murine DMD exon 23 [2]; WT mice (CD1), 24 hr after twice daily IM administration)	exon 23 skipping in quadriceps, transverse abdominis, diaphragm and heart (Murine DMD exon 23 [2]; WT mice (CD1), 8 mpk PMO or 10 mpk CPP12-PMO, five days post injection)	exon 23 skipping in quadriceps, transverse abdominis, diaphragm and heart (Murine DMD exon 23 [2]; wild type mice (C57BL/10), 24 mpk PMO or 30 mpk CPP12-PMO, one-week post injection)
5'-GGCCAAACCTCGGCTTACCTGAAAT-3’-C3-NH-CPP1212; Amide chemistry (all PMO monomers) (SEQ ID NO: 252)	significantly reduced activity	<10	<1	<1	–	–	–	–	–	–	–	–	–	–	–	–	–
5'-GGCCAAACCTCGGCTTACCTGAAAT-3'-C3-NH-PEG12-CPP12 (all PMO monomers) (SEQ ID NO: 244)	–	4.3 ± 0.8	2.2 ± 0.3	13.4 ± 3.7	dose-dependent increased amount of dystrophin mRNA	significant and consistent up to 4 weeks	17.5 ± 5.9	5.0 ± 3.1	24.4 ± 7.4	15.7	> 300	2.5	4.8	enhanced dystrophin expression	significant amount of dystrophin mRNA lacking exon 23	significantly increased amount of dystrophin mRNA with skipped exon 23	significantly increased amount of dystrophin mRNA with skipped exon 23
